Experimental data reported in patent publication US20030134390A1.

Molecular target: human IL-21 receptor, full-length, expressed on cells (human) (UniProt Q9HBE5)
Experiment: cell-based or functional assay

STAT reporter (luciferase) response of BaF3/KZ134/IL-21 receptor cells (fold over media-only control): 40
Substance: mouse IL-21 (from UniProt Q9ES17 18-146) (ligand)
